Biological target: VDAC channels (rat (endogenous in adult rat cardiomyocytes)) (UniProt Q9Z2L0)
Experiment: cross-linking

By UniProt entry, the sequences of proteins in these tests, tags left out.
UniProt Q9Z2L0, whole entry: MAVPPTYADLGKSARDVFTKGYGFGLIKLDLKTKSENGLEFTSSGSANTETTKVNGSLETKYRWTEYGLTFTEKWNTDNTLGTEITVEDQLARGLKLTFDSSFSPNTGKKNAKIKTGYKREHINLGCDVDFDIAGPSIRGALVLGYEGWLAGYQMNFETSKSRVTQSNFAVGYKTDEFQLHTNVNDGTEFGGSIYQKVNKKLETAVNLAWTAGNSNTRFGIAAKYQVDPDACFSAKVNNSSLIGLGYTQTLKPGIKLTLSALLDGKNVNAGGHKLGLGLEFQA

stoichiometry N: 2
Substance: VDAC channels (from UniProt Q9Z2L0 1-283) (natural protein)

From PMC3909701
